# Experimental data published in PubChem BioAssay AID1508624 (National Center for Advancing Translational Sciences (NCATS), 2021).
# Only a part is listed here, and it is no random draw. Some of these compounds have results that are not shown, active ones among them. Inconclusive results are not listed. Calls of active or inactive are those of the source. Calls come from the whole dose curve; as a rule, active = well fitted activation curve with a large enough effect; inconclusive = small, poorly fitted or top-dose-only effect, or another doubt; inactive = no such curve, though single readings can be large or run the other way.
# Experiment: Primary qHTS for Identification of Small Molecule Activators of Huntingtin-Antisense Promoter Activity; note: nearly all actives have a fitted effect of over 55% in size
# Conditions: HEK293 HTT-AS promoter firefly luciferase reporter, 24 h, percent change from vehicle, -100% = no light; at 57.5 µM (top of the series)
# Source text: Assay Provider: Russell L. Margolis M.D.
# Department Neurology, Johns Hopkins University School of Medicine, Baltimore, MD
# Huntington's Disease (HD) is a neurodegenerative disorder caused by a CAG repeat expansion in exon 1 of huntingtin (HTT). While there are currently no disease-modifying treatments for HD, recent efforts have focused on development of nucleotide-based therapeutics to lower HTT expression. As an alternative to siRNA or oligonucleotide methods, we hypothesized that suppression of HTT expression might be accomplished by small molecules that either (1) directly decrease HTT expression by suppressing HTT promoter activity or (2) indirectly decrease HTT expression by increasing the promoter activity of HTT-AS, the gene antisense to HTT that appears to inhibit expression of HTT.
# We developed and employed a high throughput screen for modifiers of HTT and HTT-AS promoter activity using luminescent reporter HEK293 cells; of the 52,041 compounds tested, we identified 898 replicable hits. We used a rigorous stepwise approach to assess compound toxicity and the capacity of the compounds to specifically lower huntingtin protein in 5 different cell lines, including HEK293 cells, HD lymphoblastoid cells, mouse primary neurons, HD iPSCs differentiated into cortical-like neurons, and HD hESCs. We found no compounds which were able to lower huntingtin without lowering cell viability in all assays, though the potential efficacy of a few compounds at non-toxic doses could not be excluded.
# SEQUENCE No. (1, 2, 3, etc.); […] (e.g., Cells, Incubation, Reagent, etc.); VALUE and DESCRIPTION.
# 1; Reagent; 4 uL; 2,500 Hek293 luciferase reporter cells per wells
# 3; Compound; 23 nL; Control inhibitor / compound library
# 5; Reagent; 2.5 uL; Firefly Luc reagent; Dual-Glo Luciferase Reporter Assay System (Promega)
# 6; Time; 10 min; room temperature incubation
# 7; Detection; Luminescence; FLuc
# NOTES (numbers refer to sequence above)
# 1; High-throughput screening, measuring luminescence from a Hek293 luciferase reporter, was performed in 1,536 well white-walled tissue-culture treated plates. 2,500 cells were plated in 4 µL of Opti-MEM per well using a Multidrop Combi Reagent Dispenser (ThermoFisher).
# 2; Assay plates were cultured for 24 hours.
# 3; Control inhibitor (PTC124; final concentration of 50 uM) and compound library (at final concentrations of 460 nM - 57.5 uM) were added to the assay plate using the Kalypsis Pintool Robotic System equipped with 1536 pinheads.
# 4; Cells were then incubated for 24 hours at 37 degrees C prior to luminescence measurements.
# 5; In all cases, luminescence was measured using the Dual-Glo Luciferase Reporter Assay System (Promega) following the manufacturer's instructions.
# 6; Room temperature incubation.
# 7; Luminescence signal was obtained using the PerkinElmer ViewLux plate reader. Results were normalized to vehicle control (0% activity) and zero RLU (-100% activity).
row,SMILES,"activity change, positive = activation"
1,CC(C)Oc1ccc(C(=O)NCC2(N(C)C)CCCCC2)cc1,inactive: 6.26%
2,COc1cc(C(=O)NCC2(N(C)C)CCCCC2)cc(OC)c1OC,inactive: 2.51%
3,Cc1cccc(C(=O)NCC2(N(C)C)CCCCC2)c1,inactive: 3.52%
4,CC(C)COc1ccc(C(=O)NCC2(N(C)C)CCCCC2)cc1,inactive: 11.2%
5,COc1cccc(C(=O)NCC2(N3CCOCC3)CCCCC2)c1,inactive: -6.73%
6,COc1ccc(C(=O)NCC2(N(C)C)CCCCC2)cc1Cl,inactive: 17.6%
7,CCOc1cccc(C(=O)NCC2(N(C)C)CCCCC2)c1,inactive: -4.22%
8,CCCCOc1ccccc1C(=O)NCC1(N(C)C)CCCCC1,inactive: -10.1%
9,CN(C)C1(CNC(=O)c2ccccc2[N+](=O)[O-])CCCCC1,inactive: -11.9%
10,CN(C)C1(CNC(=O)c2ccccc2F)CCCCC1,inactive: -7.65%
11,CN(C)C1(CNC(=O)c2cccc(Cl)c2)CCCCC1,inactive: -0.26%
